Among the data in ChEMBL document CHEMBL1154662, “alphavbeta3 Integrin-targeting Arg-Gly-Asp (RGD) peptidomimetics containing oligoethylene glycol (OEG) spacers” (J Med Chem, 2009) are IC50 values, retold here.

The chains behind the UniProt entries cited, without tags or fusion partners. Residues count along the entry.
UniProt P05106, 27-788 limits assumed: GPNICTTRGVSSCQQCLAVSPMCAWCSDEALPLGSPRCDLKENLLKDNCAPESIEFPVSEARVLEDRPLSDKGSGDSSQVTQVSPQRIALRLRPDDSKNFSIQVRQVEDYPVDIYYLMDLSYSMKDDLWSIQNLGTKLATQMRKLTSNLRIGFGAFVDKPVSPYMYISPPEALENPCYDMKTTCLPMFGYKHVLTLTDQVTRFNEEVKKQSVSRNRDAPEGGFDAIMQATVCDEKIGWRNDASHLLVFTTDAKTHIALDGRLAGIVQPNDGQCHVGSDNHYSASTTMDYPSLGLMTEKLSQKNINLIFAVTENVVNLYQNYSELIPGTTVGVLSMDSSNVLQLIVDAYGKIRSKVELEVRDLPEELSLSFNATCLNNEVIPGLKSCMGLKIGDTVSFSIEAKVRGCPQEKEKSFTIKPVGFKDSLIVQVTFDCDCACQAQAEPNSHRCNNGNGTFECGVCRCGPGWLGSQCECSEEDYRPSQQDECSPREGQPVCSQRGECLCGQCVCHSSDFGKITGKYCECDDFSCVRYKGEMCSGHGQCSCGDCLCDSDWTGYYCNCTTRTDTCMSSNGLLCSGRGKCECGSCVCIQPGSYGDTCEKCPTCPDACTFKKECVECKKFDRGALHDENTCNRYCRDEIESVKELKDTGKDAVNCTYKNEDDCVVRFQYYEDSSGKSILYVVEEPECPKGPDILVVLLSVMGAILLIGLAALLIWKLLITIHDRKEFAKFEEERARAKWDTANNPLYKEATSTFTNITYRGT
UniProt P08514, 32-887 limits assumed: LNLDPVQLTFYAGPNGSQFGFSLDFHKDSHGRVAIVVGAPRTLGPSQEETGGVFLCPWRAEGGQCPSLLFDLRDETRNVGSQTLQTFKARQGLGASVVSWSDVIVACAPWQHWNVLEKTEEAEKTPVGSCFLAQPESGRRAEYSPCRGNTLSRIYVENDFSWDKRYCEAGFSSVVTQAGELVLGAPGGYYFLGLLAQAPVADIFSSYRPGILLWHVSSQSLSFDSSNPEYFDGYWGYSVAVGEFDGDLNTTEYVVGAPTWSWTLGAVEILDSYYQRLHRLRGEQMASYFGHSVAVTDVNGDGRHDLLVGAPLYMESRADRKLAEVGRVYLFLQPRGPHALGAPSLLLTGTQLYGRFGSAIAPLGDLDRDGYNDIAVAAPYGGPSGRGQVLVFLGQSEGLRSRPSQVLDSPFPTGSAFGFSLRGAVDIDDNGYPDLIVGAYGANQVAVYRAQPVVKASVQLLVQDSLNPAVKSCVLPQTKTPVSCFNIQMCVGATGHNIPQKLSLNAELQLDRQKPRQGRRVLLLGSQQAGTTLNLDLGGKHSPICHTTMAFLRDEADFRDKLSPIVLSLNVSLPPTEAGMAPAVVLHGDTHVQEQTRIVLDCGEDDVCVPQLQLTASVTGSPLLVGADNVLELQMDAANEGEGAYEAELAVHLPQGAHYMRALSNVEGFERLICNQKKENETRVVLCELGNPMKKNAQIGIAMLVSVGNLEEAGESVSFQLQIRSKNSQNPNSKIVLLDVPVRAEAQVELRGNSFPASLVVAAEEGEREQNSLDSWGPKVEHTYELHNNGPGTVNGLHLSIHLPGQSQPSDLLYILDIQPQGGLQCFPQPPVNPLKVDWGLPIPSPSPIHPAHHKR
UniProt P08514, 891-1039 limits assumed: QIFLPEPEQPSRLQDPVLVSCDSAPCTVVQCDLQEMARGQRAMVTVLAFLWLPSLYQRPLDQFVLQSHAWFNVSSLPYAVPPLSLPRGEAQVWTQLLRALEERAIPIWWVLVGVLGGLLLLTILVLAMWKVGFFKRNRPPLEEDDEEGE

In the test the target is Integrin alpha-IIb/beta-3 (Homo sapiens, UniProt P05106+P08514). The experiment in a line: Inhibition of human integrin alpha2b beta3 receptor by fibrinogen competitive binding assay. It counts as protein-complex assay. Summed up:
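Platelet αIIbβ3, affinity-purified, adsorbed at 1 μg/mL in Tris buffer (2 mM CaCl2, 1 mM MgCl2 and MnCl2, pH 7.5) for 1 h at room temperature, then blocked with 1% albumin. Exposed 30 min to excess biotinylated fibrinogen with varied compound levels. Detection used anti-biotin–alkaline phosphatase and p-nitrophenyl phosphate, read at 405 nm. IC50 derived from at least two pooled dose-response experiments.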

The IC50 is the concentration at which inhibition is half-maximal. The low end stands for greater potency in that assay, the high end for weaker potency in that assay. Consider `N=C(N)NCCC[C@H](NC(=O)CN)C(=O)NCC(=O)N[C@@H](CC(=O)O)C(=O)N[C@@H](CO)C(=O)O`, for which the half-maximal inhibitory concentration (IC50) amounted to 120 nM.
